## Apparent affinities of Ab-14 variants for a coronavirus HR2 peptide

From the AlphaSeq antibody data of Engelhart et al. 2022 (doi:10.1038/s41597-022-01779-4), copy in the FLAb collection.

Target: peptide PDVDLGDISGINAS, taken from heptad repeat 2 (HR2) of SARS-CoV-2 spike.

Parent: Ab-14, a human scFv built as VH, three GGGGS repeats, VL. Only the CDRs of the heavy chain vary.
VH: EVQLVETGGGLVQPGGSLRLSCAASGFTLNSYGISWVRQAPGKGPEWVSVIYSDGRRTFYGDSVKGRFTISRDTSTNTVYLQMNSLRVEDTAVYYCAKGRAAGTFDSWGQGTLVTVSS
VL: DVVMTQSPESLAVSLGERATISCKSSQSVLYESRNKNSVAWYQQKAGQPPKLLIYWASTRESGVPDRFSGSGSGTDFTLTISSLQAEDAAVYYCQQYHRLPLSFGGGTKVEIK

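AAYL49 was designed without a model: most single CDR substitutions and a random sample of double and triple ones. The assay is AlphaSeq: two haploid yeast populations carry antibody and antigen on their surface. The frequency of each diploid, read from paired DNA barcodes, reflects how well the two displayed proteins bind. Scores were corrected for input abundance and mapped to Kd with protein pairs of known affinity run in the same pool. Each pool was mated in three replicate cultures.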

Changes read parent residue, position, new residue, counted from the first residue of the VH shown. Every variant below is changed at R100 of the VH (sequential numbering). Affinities are written as log10 Kd with Kd in nM; a lower number is a better binder. A mean of the replicates is given; it leaves out those without a signal. A pair that was not seen in that replicate is written "nd"; this usually means weak binding, but a binder can also be missed. For reference, the parent read 0.65 as the reference entry and 4.11 (one replicate of three) as a member of this library. Nonspecific signal, from three strains lacking the peptide, appeared in 15% of pairings of library AAYL49, centred on 4.06 (5% of these signals below 2.83); values are not corrected for it.

For G33S S35V R100T, the assay gave nd, nd, nd. Variant I51M G99C R100W gave nd, nd, nd. Variant G26I S35V R100Q showed nd, 3.53, nd. With S53H R100V S107L the result was 1.66, 1.41, 1.91 (mean 1.66). For S35M K65A R100S, the assay gave 4.30, 2.92, nd (mean 3.61).

Variant Y52G K65A R100S showed nd, nd, 4.97. With G33L R100W T104M the result was nd, nd, nd. With Y32W R100G D106F the result was 3.07, nd, 3.87 (mean 3.47). With D54F R100P A102D the result was nd, nd, nd. For R100C A101K, the assay gave 1.58, 1.62, 1.68 (mean 1.63).

Variant R57H R100H T104Y showed 3.42, 3.99, 3.34 (mean 3.58). For D54K K65A R100H, the assay gave nd, nd, nd. With S53I D54G R100M the result was nd, nd, nd. With G55S T58V R100Q the result was nd, nd, nd. For S35N I51W R100T, the assay gave nd, nd, 2.71.

For L29V I51Y R100Q, the assay gave 1.89, 1.81, 2.06 (mean 1.92). Variant R100A G103Q F105Q gave nd, 2.98, nd. Variant S31C D62F R100M showed nd, nd, nd. With K65E R100L A101Q the result was 1.31, 1.10, 1.05 (mean 1.15). Variant I51D R100S showed nd, nd, nd.

Variant T28H G55A R100A gave nd, nd, 3.66. Variant D54T R100V F105K gave nd, nd, nd. For R100E S107W, the assay gave 0.64, 0.91, 0.89 (mean 0.81). With T28E N30V R100N the result was 1.62, 2.08, 2.89 (mean 2.20). Variant R57F T58I R100V showed nd, nd, nd.

Variant F59R G61N R100A gave 3.20, 2.07, nd (mean 2.63). Variant S63I G99P R100I showed 6.94, 4.54, 4.59 (mean 5.36). With G26S R100C T104C the result was 6.21, 3.49, nd (mean 4.85). With S63A K65L R100K the result was 2.03, 1.86, 2.60 (mean 2.16). For G33E R100K, the assay gave nd, nd, nd.

Variant F59Q R100V G103M showed nd, nd, nd. Variant G61Y R100V T104M gave nd, nd, nd. For T58W R100K A102C, the assay gave nd, nd, nd. Variant L29Q G55L R100N showed nd, 4.36, nd. With S53C R100W A101T the result was 3.38, 3.02, nd (mean 3.20).

Variant T28Y R56W R100L showed nd, 4.39, nd. Variant R100I T104S F105I gave nd, nd, nd. With R100W T104M S107E the result was nd, nd, 3.51. With T28Q G55V R100H the result was nd, nd, nd. With V50Q R100Q A102T the result was 5.89, nd, nd.

With D54F R56Y R100Q the result was nd, nd, nd.